Paper PMC11258351, “PK/PD investigation of antiviral host matriptase/TMPRSS2 inhibitors in cell models” (Scientific Reports, 2024)

By UniProt entry, the sequences of proteins in these tests, tags left out.
UniProt P05177, whole entry: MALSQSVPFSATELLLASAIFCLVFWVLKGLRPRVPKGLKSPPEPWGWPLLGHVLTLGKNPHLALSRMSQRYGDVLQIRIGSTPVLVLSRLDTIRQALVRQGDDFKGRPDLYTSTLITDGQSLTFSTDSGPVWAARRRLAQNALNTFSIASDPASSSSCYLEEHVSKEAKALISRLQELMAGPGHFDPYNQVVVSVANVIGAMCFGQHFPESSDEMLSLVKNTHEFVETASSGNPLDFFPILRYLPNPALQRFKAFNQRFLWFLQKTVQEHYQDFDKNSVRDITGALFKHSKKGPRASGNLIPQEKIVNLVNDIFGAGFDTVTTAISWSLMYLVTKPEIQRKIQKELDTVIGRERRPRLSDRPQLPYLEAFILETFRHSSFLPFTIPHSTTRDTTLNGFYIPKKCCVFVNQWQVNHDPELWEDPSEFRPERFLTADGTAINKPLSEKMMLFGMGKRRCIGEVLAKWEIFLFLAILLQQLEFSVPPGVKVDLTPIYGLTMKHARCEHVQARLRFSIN

Molecular target: CYP1A2 (Homo sapiens, UniProt P05177)
Assay: Fluorometric CYP1A2 activity assay in human hepatic microsomes
Settings: human liver microsomes, 6 µM, p < 0.001

O=c1cc(-c2ccccc2)oc2c1ccc1ccccc12 [α-naphthoflavone, reference compound]
Inhibition of CYP1A2 activity by reference inhibitor: significantly suppressed
